Values joined by “and” are separate entries in the source; they are usually repeats but may differ in a detail not shown here. Equal entries are not always repeated. The entries are a selection whose mix differs from that of the whole data set. More than one record can exist for a structure, and the calls need not agree. Active and inactive are the calls of the source. Rule as the data show it: active = fold change permeability below about 0.7 or above about 1.3; inactive = in between.
Assay: compounds altering in vitro BBB leakiness – cell-based, FITC-avidin fluorescence, HTS, primary screen (AID 1963498); also: test concentration not given here
Conditions: brain endothelial barrier, actives lie on both sides

| Structure (SMILES) | fold change permeability |
| --- | --- |
| CC(C)NC[C@H](O)COc1ccc(CC(N)=O)cc1 | inactive: 1.2 |
| CN(C(=O)Cc1ccccc1)[C@H]1CC[C@@]2(CCCO2)C[C@@H]1N1CCCC1 | active: 0.7 |
| O=C1NC[C@@]2(CN3CCC2CC3)O1 | inactive: 1.1 |
| CC(Cc1ccc(O)cc1)NCC(O)c1cc(O)cc(O)c1 (stereo not given) | active: 0.7 |
| CN(C(=O)Cc1ccc(Cl)c(Cl)c1)[C@H]1CCCC[C@@H]1N1CCCC1 | active: 1.3 |
| CN(C(=O)Cc1ccc(Cl)c(Cl)c1)[C@@H]1CC[C@]2(CCCO2)C[C@H]1N1CCCC1 | active: 1.8 |
| CC(C)NCC(O)COc1ccc(CC(N)=O)cc1 (stereo not given) | inactive: 0.9 |
| NC(N)=NC(=O)c1nc(Cl)c(N)nc1N | inactive: 1.1 |
| CN1C(C(=O)Nc2ccccn2)=C(O)c2ccccc2S1(=O)=O | inactive: 1.2 |
| Cn1c(=O)c2[nH]cnc2n(C)c1=O | inactive: 0.9 and active: 0.7 |

From PubChem BioAssay
